# According to ChEMBL document CHEMBL4811216, “Chemotherapy for human schistosomiasis: how far have we come? What's new? Where do we go from here?” (RSC Med Chem, 2020):
# Assays:
# Schistosoma mansoni [1] = experiment: microbe, parasite or virus in culture; conditions: Liberian, 72 h
# Schistosoma mansoni [2] = experiment: microbe, parasite or virus in culture; conditions: 72 h
Compound,IC50 (Schistosoma mansoni [1]) [nM],IC50 (Schistosoma mansoni [2]) [nM]
O=C(O)Cc1cccc(OCCCN(Cc2cccc(C(F)(F)F)c2Cl)CC(c2ccccc2)c2ccccc2)c1,2100,
Fc1ccc(Cl)cc1-c1nc(Nc2ccncc2)c2nccnc2n1,7200,7500
Nc1nc2ccc(Cl)cc2c2nc(-c3ccco3)nn12 [CGS-15943],1700,

# Continued, values first:
IC50 (Schistosoma mansoni [1]) [nM],IC50 (Schistosoma mansoni [2]) [nM],Compound
,3700,CC#CC(=O)Nc1ccc2ncnc(Nc3cccc(Br)c3)c2c1
1200,2700,COc1ccc(NC(=O)c2ccc(-c3ccc(-c4noc(C)n4)cc3C)cc2)cc1N1CCN(C)CC1 [GR-127935]
3500,2500,CNCc1ccc(C)c(NC(=O)c2ccc(Nc3nc(-c4ccccc4)c4ccccc4n3)cc2)c1 [BMS-833923]
,2900,CCOc1cc2ncc(C#N)c(Nc3ccc(F)c(Cl)c3)c2cc1NC(=O)/C=C/CN(C)C [PELITINIB]
